# Yeast mating assay B: variants of the scFv Ab-14

Antigen: PDVDLGDISGINAS, a 14-residue peptide of the SARS-CoV-2 spike HR2 region.

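Phage display of a naive human antibody library on the peptide gave the parent. These sequences belong to a second round, designed from the earlier measurements on random variants of the parent. Several design methods are mixed in this list. The scFvs were displayed on barcoded MATa yeast, the peptide on MATalpha yeast. Binding brings cells together so that they mate, and sequencing counts the barcode pairs among the diploids. Each replicate has its own calibration line, from reference interactions of the BCL2 family. Each pool was mated in six replicate cultures.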

Each scFv is VH, three GGGGS repeats, VL, as in the parent Ab-14, and differs from it in the CDRs of the light chain only.
VH: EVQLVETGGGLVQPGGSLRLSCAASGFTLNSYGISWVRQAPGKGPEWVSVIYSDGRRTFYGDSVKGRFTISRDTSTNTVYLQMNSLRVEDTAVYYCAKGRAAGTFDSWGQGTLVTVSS
VL: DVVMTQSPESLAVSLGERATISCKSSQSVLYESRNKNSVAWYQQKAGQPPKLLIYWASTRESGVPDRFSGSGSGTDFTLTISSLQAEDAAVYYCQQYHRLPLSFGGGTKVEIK

The parent's light chain CDRs are KSSQSVLYESRNKNSVA, WASTRES, QQYHRLPLS; each variant's own CDRs replace them letter for letter.
This list holds designs with at most six substitutions.
Scale: log10 of Kd in nM, estimated from mating counts; low values are strong binders.
Replicates are averaged; those with no signal do not enter the mean.
An entry "nd" has no value in the source: the pair was not observed among the diploids in that replicate. This suggests poor binding but is not conclusive.
The parent sequence was in this pool as ten entries: three were never detected, three once, and four in most replicates, with averages from 0.34 to 2.37.
Empty control strains, which show no peptide, gave a signal in 4% of pairings with all light chain designs; the median was 2.64 and 95% of these signals were weaker than 1.59. No background was subtracted.
Values of this round are not directly comparable with the first-round values of the same sequences.
In the paper, a design with two or fewer of six values counts as a poor binder.

* KLMYSVPYESRNKNSVA / DASTRSS / QQYHRLPLS: 0.38, 0.26, 0.09, 0.34, 0.12, 0.15 (mean 0.22)
* KSSPSYHYESRNKNSVA / GASTRES / QQYHRLPLS: 0.88, 0.69, 0.93, 0.19, 0.34, 0.67 (mean 0.62)
* KLSQSVLYEQRNKNSVA / NASQRES / QQYHRLPLS: -0.13, -0.22, -0.29, -0.42, -0.33, -0.14 (mean -0.25)
* KLSQSHLYESRNKNSVA / NASTRLM / QQYHRLPLS: 0.20, 0.38, 0.29, 0.49, 0.62, 0.35 (mean 0.39)
* KSSMEFLYESRNKNSVA / GASTRES / QQYHRLTLS: nd, nd, nd, nd, nd, nd
* KGDQSVLYESRWKNSVA / WASTRES / QQYHCLPLS: nd, nd, nd, nd, nd, nd
* KSGQSLLYESQNKNSAA / YASTRES / QQYHRLPLS: nd, nd, nd, nd, nd, nd
* KSSNSYLYESENKNSVA / EASQRES / QQYHRLPLS: 0.56, 0.57, 0.64, 0.51, 0.48, 0.61 (mean 0.56)
* KSDQSVLYESRNKQSVA / SASTRES / QQYHRLPLS: 0.54, 0.82, 0.05, 0.33, 0.23, 0.82 (mean 0.46)
* KLSQSVMGWSRNKNSVA / NASTRES / QQYHRLPLS: 0.16, 0.07, 0.16, -0.02, 0.02, 0.00 (mean 0.07)
* KSSISVLQESRNQNSVA / EASTREV / QQYHRLPLS: 2.81, 1.45, 1.49, 1.80, 1.11, 1.79 (mean 1.74)
* KSSQSVQYESRNKNSVA / WAQTRES / QQYHRLPLS: nd, 1.19, nd, 1.93, 2.30, nd (mean 1.81)
* KVSQSMLGEERNKNSVA / SASTREN / QQYHRLPLS: 0.67, 0.40, 0.62, 0.41, 0.49, 0.77 (mean 0.56)
* KSSQSVLYEQRNKNSVA / WASTRWS / QQYHRLPLS: 0.56, 0.40, 0.60, 1.12, 1.00, 1.16 (mean 0.81)
* KVSQSELYESRNKNSVA / NASKRES / QQYHRLPLS: 0.42, 0.21, -0.04, 0.20, -0.11, 0.01 (mean 0.11)
* KVSQSDLMESRNKNSVA / EASTRES / QQYHRLPLS: 0.02, -0.24, -0.15, -0.05, -0.30, 0.03 (mean -0.12)
* KSSQSVTYESRNKNSVA / WASTRES / QQYHRVPLS: nd, nd, nd, nd, nd, nd
* KSSESVLYESRNKNSVA / AASTRED / QQYHRMPLS: 0.96, 0.26, 0.32, 0.57, 0.52, 0.91 (mean 0.59)
* KLSQSVLYESRNKNSVA / EASTRTS / QQYHRLPLS: -0.17, -0.30, -0.17, -0.61, -0.43, -0.20 (mean -0.31)
* KSSQSMLYESRNKNDVA / AASTRES / QDYHRLPLS: 1.01, 1.24, 1.68, 1.13, 1.31, 1.27 (mean 1.27)
* KSQQSVLYESRNKNSVA / YASTRES / QSYHRLPLS: 1.64, 3.01, 1.94, 1.71, 1.72, 2.30 (mean 2.05)
* KSSGSVLYESNNKNSVA / HASTRED / QQYHRLPLS: 0.40, 0.18, 0.02, 0.06, -0.06, 0.21 (mean 0.13)
* KMQQSQLYESRNKNSVA / NASTRES / QQYHRLPLS: -0.17, -0.32, -0.47, -0.39, -0.36, -0.27 (mean -0.33)
* KSSQSVLYTSRNKNSVA / WASVRES / QQYHRLPLS: nd, 2.45, nd, nd, nd, 1.99 (mean 2.22)
* KLSQSVLYESRNKNSVA / HASTRES / QDYHRLPLS: -0.03, 0.00, 0.20, -0.16, -0.05, 0.21 (mean 0.03)
* KSSQSVLYESRNKNQVA / WASTRES / QSYHRLPLS: nd, nd, nd, nd, nd, nd
* KSSQSVGYESRLKNSVA / WASTRES / QQYHRLPLS: 0.61, 0.39, 0.10, 0.23, 0.54, 0.48 (mean 0.39)
* KLSQSYLYESRNKNSVA / NASTREV / QQYHRLPLS: 0.42, 0.20, 0.04, 0.01, 0.02, -0.05 (mean 0.11)
* KLSQSDLMESRNKNSVA / NASTRES / QQYHRLPLS: 0.25, -0.19, -0.07, -0.49, 0.15, 0.17 (mean -0.03)
* KVSQKNLYESRMKNSVA / MASQRES / QQYHRLPLS: 0.56, 0.36, 0.70, 0.22, 0.39, 0.59 (mean 0.47)
* KISQSVLNESRNKNSVA / DASTRES / QQYHRLPLS: 0.03, -0.06, 0.03, -0.41, -0.25, 0.20 (mean -0.08)
* KSSQSVTYESRNKNSVA / WAETREN / QQGARLPGS: nd, nd, nd, nd, nd, nd
* KLSGSVLYESRNKNSVA / NASTRLS / QQYHRLPLS: -0.25, -0.07, -0.27, -0.07, -0.31, -0.20 (mean -0.20)
* KLSQSFLYESRNKNSVA / DANTRES / QQYHRLPLS: -0.09, -0.36, -0.48, -0.40, -0.22, -0.09 (mean -0.27)
* KASISVLFESRNKNSVA / DASTRSS / QQYHRLPLS: 0.90, 0.52, 0.39, 0.27, 0.22, 0.80 (mean 0.52)

Top 2 of the variants detected in all replicates, tightest first:

| CDR-L1 | CDR-L2 | CDR-L3 | replicates, log10 nM | mean log10 Kd (nM) |
|---|---|---|---|---|
| KMQQSQLYESRNKNSVA | NASTRES | QQYHRLPLS | -0.17, -0.32, -0.47, -0.39, -0.36, -0.27 | -0.33 |
| KLSQSVLYESRNKNSVA | EASTRTS | QQYHRLPLS | -0.17, -0.30, -0.17, -0.61, -0.43, -0.20 | -0.31 |

Source: Li et al. 2023 (doi:10.1038/s41467-023-39022-2), MIT Lincoln Laboratory and A-Alpha Bio; data file from the FLAb repository.